Data reported in PubChem BioAssay AID463141 (The Scripps Research Institute Molecular Screening Center, 2010).
Only a part is listed here, and it is no random draw. Activity calls are given as the source filed them.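 The calls were made as follows: active = activation above the mean of all tested compounds plus 3 SD (cut at about 21% in these data); inactive = the rest.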

The chains behind the UniProt entries cited, without tags or fusion partners.
UniProt P42574, whole entry D9A/D28A/D175A: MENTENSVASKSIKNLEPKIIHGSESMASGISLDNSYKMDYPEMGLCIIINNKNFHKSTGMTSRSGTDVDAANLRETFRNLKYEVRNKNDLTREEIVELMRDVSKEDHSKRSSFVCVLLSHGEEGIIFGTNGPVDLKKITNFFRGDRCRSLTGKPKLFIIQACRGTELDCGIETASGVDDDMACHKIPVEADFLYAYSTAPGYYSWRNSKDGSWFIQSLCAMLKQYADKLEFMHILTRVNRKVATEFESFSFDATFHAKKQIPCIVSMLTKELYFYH

Target: Caspase-3 (Homo sapiens) (UniProt P42574)
Assay: activators of human procaspase-3 D3A mutant, primary screen, biochemical, absorbance, PC-3 D3A mutant, single concentration (AID 463141);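 also: 0% = DMSO alone and 100% = DMSO wells spiked with extra 5 µM PC-3 D3A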
Conditions: recombinant procaspase-3 D3A, Ac-DEVD-pNA absorbance 405 nm; at 8.5 µM; active compounds read high

| SMILES | activation |
| --- | --- |
| O=C(NCC1(N2CCCCC2)CCCCC1)c1cccc(C(F)(F)F)c1 | inactive: 10% |
| O=C(NCC1(N2CCOCC2)CCCCC1)c1cc(=O)[nH]c2ccccc12 | inactive: -3.32% |
| COc1cc(C(=O)NCC2(N3CCCCC3)CCCCC2)ccc1OC(F)F | inactive: -1.57% |
| COc1ccc(NC2CCN(C(=O)OC(C)(C)C)CC2)cc1 | inactive: -1.31% |
| CN1CCN(CCOC(=O)C(O)(c2ccccc2)c2ccccc2)CC1 | inactive: -7.34% |
| O=C(NCC1(N2CCCCC2)CCCCC1)c1ccc(OC(F)F)cc1 | inactive: 2.44% |
| CCN1CCC(Nc2ccc(Cl)cc2)CC1 | inactive: 6% |
| N#CC1(Nc2ccccc2)CCN(CCc2ccccc2)CC1 | inactive: 5.13% |
| O=C(NCC1(N2CCCCC2)CCCCC1)c1cccc([N+](=O)[O-])c1 | inactive: 0.85% |
| CN1CCC(Nc2cccc(F)c2)CC1 | inactive: 7.71% |
| O=C(NCC1(N2CCCCC2)CCCCC1)c1cncc(Br)c1 | inactive: 7.71% |
| CC(C)c1ccc(NC2CCN(C(=O)OC(C)(C)C)CC2)cc1 | inactive: 7.71% |
| COc1ccc(CN(CCCl)CCCl)cc1Cl | inactive: 12.8% |
| CN(C)c1cccc(C(=O)NCC2(N3CCCCC3)CCCCC2)c1 | inactive: 7.77% |
| COc1cc(OC)c(C(=O)NCC2(N(C)C)CCCCC2)cc1OC | inactive: 1.77% |
| O=C(NCC1(N2CCOCC2)CCCCC1)c1cc(F)c(F)cc1Cl | inactive: 7.18% |
| O=C(NCC1(N2CCCCC2)CCCCC1)c1ccc(Cl)nc1 | inactive: -3.04% |
| Cc1cc(C)cc(N(C(=O)c2ccccc2)C2CCN(C(=O)OC(C)(C)C)CC2)c1 | inactive: -1.71% |
| O=C(NCC1(N2CCOCC2)CCCCC1)c1cc2ccccc2o1 | inactive: 7.2% |
| N#CC1(Nc2ccccc2)CCN(Cc2ccccc2)CC1 | inactive: -0.69% |
| O=C(NCC1(N2CCCCC2)CCCCC1)c1ccc(Cl)s1 | inactive: 11.5% |

| SMILES | activation |
| --- | --- |
| O=C(OC1CN2CCC1CC2)C1c2ccccc2Oc2ccccc21 (stereo not drawn) | inactive: 3.85% |
| COc1ccc(Cl)cc1C(=O)NCC1(N2CCOCC2)CCCCC1 | inactive: 7.87% |
| CCOC(=O)N1CCC(Nc2ccc(OC)cc2)CC1 | inactive: 0.37% |
| COc1ccc(C(=O)NCC2(N3CCCCC3)CCCCC2)cc1 | inactive: 10.3% |
| COc1ccc(C(=O)NCC2(N3CCCCC3)CCCCC2)c(OC)c1OC | inactive: 1.12% |
| CC(C)(C)OC(=O)N1CCC(N(C(=O)c2ccccc2)c2ccc(F)cc2)CC1 | inactive: 5.34% |
| O=C(NCC1(N2CCCCC2)CCCCC1)c1ccc(=O)[nH]c1 | inactive: -0.96% |
| O=C(NCC1(N2CCCCC2)CCCCC1)c1cccs1 | inactive: 4.81% |
| CSc1ccccc1C(=O)NCC1(N2CCCCC2)CCCCC1 | inactive: 0.99% |
| CCOC(=O)N1CCC(Nc2cccc(C)c2)CC1 | inactive: 10.8% |
| Cc1ccc(OCC(C)C)c(CN(CCCl)CCCl)c1 | inactive: -4.73% |
| CCOc1ccc(C)cc1CN(CCCl)CCCl | inactive: 4.52% |
| O=C(NCC1(N2CCCCC2)CCCCC1)c1ccc(F)cc1 | inactive: 0.49% |
| COc1ccc(NC2CCN(CCc3ccccc3)CC2)c(OC)c1 | inactive: -5.45% |
| CCN1CCC(Nc2cccc(F)c2)CC1 | inactive: 2.97% |
| O=C(NCC1(N2CCCCC2)CCCCC1)c1ccco1 | inactive: -7.23% |
| CN(C)c1ccc(C(=O)NCC2(N3CCCCC3)CCCCC2)cc1 | inactive: 3.05% |
| COc1cc(OC)cc(C(=O)NCC2(N3CCCCC3)CCCCC2)c1 | inactive: -2.65% |
| Cc1ccc(C(=O)NCC2(N3CCCCC3)CCCCC2)o1 | inactive: -0.74% |
| Fc1ccccc1NC1CCN(Cc2ccccc2)CC1 | inactive: 6.03% |
| COc1cccc(C(=O)N(c2cc(C)cc(C)c2)C2CCN(C(=O)OC(C)(C)C)CC2)c1 | inactive: 14% |

| SMILES | activation |
| --- | --- |
| COc1cc(OC)cc(C(=O)NCC2(N3CCOCC3)CCCCC2)c1 | inactive: 0.81% |
| CCC(CO)(C(=O)OC1CN2CCC1CC2)c1ccccc1 (stereo not drawn) | inactive: 6.78% |
| CN1CCC(Nc2ccc(Cl)cc2)CC1 | inactive: 7.11% |
| CCCOc1ccc(C)cc1CN(CCCl)CCCl | inactive: 8.74% |
| CCOc1ncccc1C(=O)NCC1(N2CCOCC2)CCCCC1 | inactive: -11.9% |
| CN1CCC(Nc2ccc(F)c(Cl)c2)CC1 | inactive: 3.92% |
| CC(C)(C)OC(=O)N1CCC(Nc2ccccc2)CC1 | inactive: 1.88% |
| O=C(O)C1(Nc2ccccc2)CCN(Cc2ccccc2)CC1 | inactive: -2.34% |
| CCCOc1ccc(C(=O)NCC2(N(C)C)CCCCC2)cc1 | inactive: 1.14% |
| CCOC(=O)N1CCC(Nc2ccc(C)cc2)CC1 | inactive: 8.17% |
| N/C(=N\O)c1c(N)no[n+]1[O-] | inactive: -4.81% |
| CCc1cc(C(=O)NCC2(N3CCCCC3)CCCCC2)sc1C | inactive: 7.64% |
| O=C(OC1CN2CCC1CC2)C1c2ccccc2C=Cc2ccccc21 (stereo not drawn) | inactive: -5.53% |
| COc1cc(C(=O)NCC2(N3CCOCC3)CCCCC2)cc(OC)c1C | inactive: 8.98% |
| O=C(NCC1(N2CCOCC2)CCCCC1)c1cc(Br)ccc1Cl | inactive: -5.65% |
| COc1ccc(C(=O)NCC2(N3CCOCC3)CCCCC2)cc1OC | inactive: -4.81% |
| CN(C)C1(CNC(=O)c2cccc(C#N)c2)CCCCC1 | inactive: -3% |
| c1ccc(CN2CCC(Nc3ccccc3)CC2)cc1 | inactive: 5.45% |
| CCCN1CCC(Nc2cc(OC)cc(OC)c2)CC1 | inactive: 2.19% |
| N#Cc1ccc(C(=O)NCC2(N3CCCCC3)CCCCC2)cc1 | inactive: 3.08% |
| CC(C)(C)OC(=O)N1CCC(N(C(=O)c2ccccc2)c2ccc(Cl)cc2)CC1 | inactive: 10.6% |
